The record followed here is US7238652B2, “Personal care compositions comprising alkyl phosphate surfactants and selected weak acid auxiliary agents” (priority 2005, dated 2007).

In the data set the test system is Zein protein. Briefly: Zein solubilization test (mildness / irritation potential). As to conditions: pH 6.0, 5% total surfactant solutions, Zein and surfactant contacted for 24 hours. On the procedure:
• 1. Prepare a 5 wt. % aqueous solution of the surfactant. If the natural pH of the system differs from that desired, adjust by incremental addition of acid or base. • 2. Mix 4 grams of Zein protein in 40 grams of the surfactant solution. Allow the mixture to stand at room temperature for 24 hours with frequent vigorous shaking. • 3. Filter the supernatant of the Zein/surfactant mixture using a syringe filter with a 0.45 micron Nylon membrane. Dilute the filtered solution 100-fold with 2% SDS solution (i.e., 0.1 gram filtered solution diluted in 10 grams of 2% SDS solution). As a reference, also prepare a diluted surfactant solution by mixing 0.1 grams of 5 wt. % surfactant solution with 10 grams of 2% SDS solution. • 4. The Zein concentration is determined using a UV/VIS spectrophotometer operated in the range 200-350 nm at a scanning rate of 800 nm/min, using a 2% SDS solution as the background.

As to “Coco aminopropyl betaine [Coco aminopropyl betaine (CAPB)]”, the “Percent Zein solubilized” value is 3.28%.
